In assay [1] the test system is P2X7 receptor protein.
Assay [2] deals with P2X7 receptor protein. The source holds these as a separate data set.
The next assay has as its system Hela cells. The assay can be described thus: Cell proliferation experiment (CCK-8 cell viability). The assay is classed as cell-based, human. Here is the method: (§1) Assay of cell viability by CCK-8 kit: Cells (cell density: 1000 cells/well) were inoculated in a 96-well plate and cultured for 24 hours. […] Cell proliferation was detected using Cell Counting Kit-8 (CCK-8).

The subject of another assay is SiHa cells. Described as above. It counts as cell-based, human. On the procedure:
as §1

The source of these data is patent US20250114325A1 (JIANGSU PROVINCE HOSPITAL OF CHINESE MEDICINE, priority 2022, published 2025).

Take `C=C1CCC[C@]2(C)C=C3OC(=O)C(C)=C3C[C@@H]12` [Atr-I, Atractylenolide I]: the “expression of P2X7 receptor protein in Hela cells” value in the assay on P2X7 receptor protein [1] is “Reduced expression of P2X7 receptor protein”. For the same compound, the “expression of P2X7 receptor protein in SiHa cells” value with P2X7 receptor protein [2] was “Reduced expression of P2X7 receptor protein”. Also, in the assay with Hela cells, the “optimal inhibitory concentration against Hela cells” value is 40 µM. The “optimal inhibitory concentration against SiHa cells” value in the assay with SiHa cells was determined as 80 µM.
